# Literature values, collected in US5545628A, “Pharmaceutical composition containing fenofibrate” (priority 1995, dated 1996).
# Conditions: fenofibric acid
compound,measurement,value
CC(C)(Oc1ccc(C(=O)c2ccc(Cl)cc2)cc1)C(=O)O [Fenofibric acid],binding to plasma albumin,extensively bound to plasma albumin
